Results from ChEMBL document CHEMBL1132729.

What was measured:
[1] = target: T1, Lipoprotein lipase (Bos taurus) (UniProt P11151); test: Percent inhibition of compound against Lipoprotein lipase(LPL) at 3h was evaluated; details: concentration not given here
T1 sequence (whole entry): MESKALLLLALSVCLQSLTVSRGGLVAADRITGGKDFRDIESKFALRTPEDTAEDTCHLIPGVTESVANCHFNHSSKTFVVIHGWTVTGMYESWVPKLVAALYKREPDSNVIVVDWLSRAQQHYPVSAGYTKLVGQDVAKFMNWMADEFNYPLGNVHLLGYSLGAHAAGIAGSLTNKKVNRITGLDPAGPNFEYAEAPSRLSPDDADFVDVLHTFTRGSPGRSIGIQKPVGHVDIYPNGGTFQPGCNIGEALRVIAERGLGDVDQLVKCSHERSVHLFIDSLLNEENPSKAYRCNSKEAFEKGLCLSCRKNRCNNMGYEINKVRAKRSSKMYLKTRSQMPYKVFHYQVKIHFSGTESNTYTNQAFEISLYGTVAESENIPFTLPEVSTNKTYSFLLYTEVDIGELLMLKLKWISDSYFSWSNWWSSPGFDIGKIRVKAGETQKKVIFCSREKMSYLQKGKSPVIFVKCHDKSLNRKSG

[2] = target: T1, Lipoprotein lipase (Bos taurus); test: Percent inhibition of compound against Lipoprotein lipase(LPL) at 10 uM was evaluated

CCCCCCS(=O)(=O)F gave an inhibition [1] of 60% and an inhibition [2] of 50%.
